The values that follow come from patent US20220241422A1, “DRUG DELIVERY COMPOSITION AND PHARMACEUTICAL COMPOSITION” (Nihon University, priority 2019, published 2022).

This series can be described thus: Nasal administration test for RI-labeled dextran/PEG-PCL-Tat: distribution efficiency in tissues. The following applies: 60 minutes after nasal administration; for Relative ratio: drug solution alone taken as 1.

As to [^14C]-Dextran [Drug solution alone], the “ID %/g tissue (distribution efficiency of RI-labeled dextran)” value is, setting by setting: (Forebrain part) 0.159 ID %/g tissue; (Hindbrain part) 0.130 ID %/g tissue; (Olfactory bulb) 2.104 ID %/g tissue; (Spinal cord) 0.042 ID %/g tissue; (Whole brain) 0.177 ID %/g tissue. For the same substance, the Relative ratio is, setting by setting: (Forebrain part) 1; (Hindbrain part) 1; (Olfactory bulb) 1; (Spinal cord) 1; (Whole brain) 1.
